# Literature values in publication PMC9564337, “Development of a Neurotensin-Derived ^68Ga-Labeled PET Ligand with High In Vivo Stability for Imaging of NTS1 Receptor-Expressing Tumors” (Cancers, 2022).
# Conditions: human plasma, 37 °C, ref Schindler et al. [40], cited from earlier work
smiles,measurement,setting,value
CC(C)C[C@H](NC(=O)[C@@H](NC(=O)[C@H](Cc1ccc(O)cc1)NC(=O)[C@@H]1CCCN1C(=O)[C@H](CCCNC(=N)N)NC(=O)[C@@H](N)CCCNC(=N)N)C(C)(C)C)C(=O)O,% Intact Peptide in Plasma after 10 min,10 min,11 ^d %
same,% Intact Peptide in Plasma after 1 h,1 h,<1 ^d %
same,% Intact Peptide in Plasma after 24 h,24 h,<1 ^d %
same,% Intact Peptide in Plasma after 48 h,48 h,<1 ^d %

# Marks after values point to notes of the source that are not given here.
